System: trypsin (EC 3.4.21.4)
Test: BEISA: competition of inhibitors or other substances for biotinylated trypsin against coated ovomucoid
Assay type: binding
Description: Methods: NHS-biotin solution (5.5 mg in 200 ul dimethyl sulfoxide) and trypsin solution (15 mg in 1000 ul PBS) were mixed and reacted at room temperature for 3 hours with gently shaking. The unconjugated biotin was removed at 4° C. using minicon-15 concentrator (Amicon. Co.). The final volume was 1000 ul.
The 96-well microtiter plate (Falcon 3911) was coated with trypsin egg white inhibitor (ovomucoid, 4 ug/100 ul/well) at […] overnight. The plate was washed once using PBST {[PBS, NaCl, 9.00; Na2HPO4, 1.15; NaH2PO4, 0.23 (g/l) pH 7.2] plus 0.05% Tween-20} and 200 ul of 5% skim milk was added to each well of the plate followed by incubation at 37° C. for 2 hours. The plate was rinsed twice with PBST and 50 ul of PBS was added to each well of the plate except for those in column one where 100 ul of PBS was added. Unlabelled trypsin (50 ul of 400 ug/ml) was added to the wells of the second column followed by successive double dilutions of trypsin in wells up to and including those in column 11. Biotinylated trypsin in PBS (50 ul of 1:3000 dilution of the stock to yield approximately 2 ug/100 ul/well) was added to each well except those in the first column followed by incubation at 37° C. for 1 hour. The final volume in each well was 100 ul. […] The absorbency was then read at 405 nm using a microplate reader (Bio-Rad laboratories Inc. Mississauga, ON, Canada, model 450). […]

- Interference with the binding of labelled trypsin to trypsin inhibitor: did not interfere
Substance: human serum albumin (HSA): other protein tested for interference
